Measured values as given in US5420328A.
Like-named read-outs stand apart in the source and are kept apart here.

Chains of the proteins cited; added tags and fusions are not shown. Residues count along the entry.
UniProt P00800, 233-548 limits assumed: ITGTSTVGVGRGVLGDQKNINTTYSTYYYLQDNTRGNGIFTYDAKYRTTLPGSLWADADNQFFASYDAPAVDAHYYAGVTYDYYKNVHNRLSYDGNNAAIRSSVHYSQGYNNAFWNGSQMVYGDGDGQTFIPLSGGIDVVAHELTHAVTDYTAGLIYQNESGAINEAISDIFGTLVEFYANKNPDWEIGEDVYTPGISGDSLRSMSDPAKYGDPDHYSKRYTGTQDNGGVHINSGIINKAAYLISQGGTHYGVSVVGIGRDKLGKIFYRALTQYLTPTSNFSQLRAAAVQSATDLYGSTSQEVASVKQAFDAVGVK

Target: thermolysin (Bacillus thermoproteolyticus, UniProt P00800)
Assay: Ki values for thermolysin of peptidylphosphonates
Conditions: read-out: Ki values for thermolysin

Compound: CC(C)CC(NC(=O)OCc1ccccc1)P(=O)(O)O[C@@H](CC(C)C)C(=O)N[C@@H](C)C(=O)O (stereo partly drawn)
- Ki (D isomer (L/D isomers)): 42 µM
- Ki (L isomer (L/D isomers)): 0.68 µM

Compound: CC(C)C[C@H](OP(=O)(O)CNC(=O)OCc1ccccc1)C(=O)N[C@@H](C)C(=O)O
- Ki: 13 µM

Compound: CC(C)C[C@H](OP(=O)(O)[C@H](C)NC(=O)OCc1ccccc1)C(=O)N[C@@H](C)C(=O)O
- Ki: 1.8 µM

Compound: CC(C)C[C@H](OP(=O)(O)C(Cc1ccccc1)NC(=O)OCc1ccccc1)C(=O)N[C@@H](C)C(=O)O (stereo partly drawn)
- Ki (D isomer (L/D isomers)): 30 µM
- Ki (L isomer (L/D isomers)): 0.045 µM
